The chains behind the UniProt entries cited, without tags or fusion partners.
UniProt Q07820, whole entry: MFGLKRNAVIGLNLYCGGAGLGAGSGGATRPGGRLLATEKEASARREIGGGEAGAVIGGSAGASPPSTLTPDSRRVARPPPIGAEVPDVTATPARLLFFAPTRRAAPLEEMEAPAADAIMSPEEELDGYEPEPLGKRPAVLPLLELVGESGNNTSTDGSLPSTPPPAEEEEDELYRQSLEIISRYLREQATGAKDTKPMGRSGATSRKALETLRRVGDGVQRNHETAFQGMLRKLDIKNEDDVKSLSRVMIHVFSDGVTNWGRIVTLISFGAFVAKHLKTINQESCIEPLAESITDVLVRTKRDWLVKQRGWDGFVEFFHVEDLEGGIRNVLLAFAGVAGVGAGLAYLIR

According to ChEMBL document CHEMBL3297727, “Endiandric acid analogues from Beilschmiedia ferruginea as dual inhibitors of Bcl-xL/Bak and Mcl-1/Bid interactions” (J Nat Prod, 2014):

Biological target: Induced myeloid leukemia cell differentiation protein Mcl-1 (Homo sapiens, UniProt Q07820)
Experiment: Displacement of fluorescein-labeled BID from His-tagged MCL-1 (unknown origin) after 1 hr by fluorescence polarization assay

CN(C)CC[C@H](CSc1ccccc1)Nc1ccc(S(=O)(=O)NC(=O)c2ccc(N3CCN(Cc4ccccc4-c4ccc(Cl)cc4)CC3)cc2)cc1[N+](=O)[O-] [ABT 737]
Ki: 20.8 µM
